Laboratory results as given in the NIST ThermoML archive (doi:10.1016/j.tca.2009.01.008).

Experiments:
[1] = molar heat capacity at constant pressure; details: 101.33 kPa, Liquid, Vacuum adiabatic calorimetry
[2] = molar heat capacity at constant pressure; xn = mol fraction of the nth substance listed; details: 101 kPa, Liquid, Vacuum adiabatic calorimetry

OCCOCCOCCOCCO [tetraethylene glycol]
[1]
Details	molar heat capacity at constant pressure [J/K/mol]
303.15 K	428.5
313.15 K	430.9
323.15 K	434.7
333.15 K	438.5
343.15 K	443.6
353.15 K	449.1

OCCOCCOCCOCCO [tetraethylene glycol] + O
molar heat capacity at constant pressure [J/K/mol], [2]
Details	303.15 K	313.15 K	323.15 K	333.15 K	343.15 K	353.15 K
x1 = 0.2	156	157.2	158.9	161	163	165.4
x1 = 0.4	230.6	232.4	234.9	237.5	240.5	243.7
x1 = 0.5	266	267.9	270.4	273.4	277.1	280.9
x1 = 0.6	300.5	302.4	305.3	308.6	312.4	316.5
x1 = 0.8	366.5	369.5	373.5	377.5	382.6	388
